This note sets out measurements from PubChem BioAssay AID504333 (National Center for Advancing Translational Sciences (NCATS), 2011).

Protein sequences, listed by entry. Tags and fused reporters are not part of them. Lines headed by an entry give the natural chain unless they say otherwise; changes in a name come on top.
UniProt Q9UIF8: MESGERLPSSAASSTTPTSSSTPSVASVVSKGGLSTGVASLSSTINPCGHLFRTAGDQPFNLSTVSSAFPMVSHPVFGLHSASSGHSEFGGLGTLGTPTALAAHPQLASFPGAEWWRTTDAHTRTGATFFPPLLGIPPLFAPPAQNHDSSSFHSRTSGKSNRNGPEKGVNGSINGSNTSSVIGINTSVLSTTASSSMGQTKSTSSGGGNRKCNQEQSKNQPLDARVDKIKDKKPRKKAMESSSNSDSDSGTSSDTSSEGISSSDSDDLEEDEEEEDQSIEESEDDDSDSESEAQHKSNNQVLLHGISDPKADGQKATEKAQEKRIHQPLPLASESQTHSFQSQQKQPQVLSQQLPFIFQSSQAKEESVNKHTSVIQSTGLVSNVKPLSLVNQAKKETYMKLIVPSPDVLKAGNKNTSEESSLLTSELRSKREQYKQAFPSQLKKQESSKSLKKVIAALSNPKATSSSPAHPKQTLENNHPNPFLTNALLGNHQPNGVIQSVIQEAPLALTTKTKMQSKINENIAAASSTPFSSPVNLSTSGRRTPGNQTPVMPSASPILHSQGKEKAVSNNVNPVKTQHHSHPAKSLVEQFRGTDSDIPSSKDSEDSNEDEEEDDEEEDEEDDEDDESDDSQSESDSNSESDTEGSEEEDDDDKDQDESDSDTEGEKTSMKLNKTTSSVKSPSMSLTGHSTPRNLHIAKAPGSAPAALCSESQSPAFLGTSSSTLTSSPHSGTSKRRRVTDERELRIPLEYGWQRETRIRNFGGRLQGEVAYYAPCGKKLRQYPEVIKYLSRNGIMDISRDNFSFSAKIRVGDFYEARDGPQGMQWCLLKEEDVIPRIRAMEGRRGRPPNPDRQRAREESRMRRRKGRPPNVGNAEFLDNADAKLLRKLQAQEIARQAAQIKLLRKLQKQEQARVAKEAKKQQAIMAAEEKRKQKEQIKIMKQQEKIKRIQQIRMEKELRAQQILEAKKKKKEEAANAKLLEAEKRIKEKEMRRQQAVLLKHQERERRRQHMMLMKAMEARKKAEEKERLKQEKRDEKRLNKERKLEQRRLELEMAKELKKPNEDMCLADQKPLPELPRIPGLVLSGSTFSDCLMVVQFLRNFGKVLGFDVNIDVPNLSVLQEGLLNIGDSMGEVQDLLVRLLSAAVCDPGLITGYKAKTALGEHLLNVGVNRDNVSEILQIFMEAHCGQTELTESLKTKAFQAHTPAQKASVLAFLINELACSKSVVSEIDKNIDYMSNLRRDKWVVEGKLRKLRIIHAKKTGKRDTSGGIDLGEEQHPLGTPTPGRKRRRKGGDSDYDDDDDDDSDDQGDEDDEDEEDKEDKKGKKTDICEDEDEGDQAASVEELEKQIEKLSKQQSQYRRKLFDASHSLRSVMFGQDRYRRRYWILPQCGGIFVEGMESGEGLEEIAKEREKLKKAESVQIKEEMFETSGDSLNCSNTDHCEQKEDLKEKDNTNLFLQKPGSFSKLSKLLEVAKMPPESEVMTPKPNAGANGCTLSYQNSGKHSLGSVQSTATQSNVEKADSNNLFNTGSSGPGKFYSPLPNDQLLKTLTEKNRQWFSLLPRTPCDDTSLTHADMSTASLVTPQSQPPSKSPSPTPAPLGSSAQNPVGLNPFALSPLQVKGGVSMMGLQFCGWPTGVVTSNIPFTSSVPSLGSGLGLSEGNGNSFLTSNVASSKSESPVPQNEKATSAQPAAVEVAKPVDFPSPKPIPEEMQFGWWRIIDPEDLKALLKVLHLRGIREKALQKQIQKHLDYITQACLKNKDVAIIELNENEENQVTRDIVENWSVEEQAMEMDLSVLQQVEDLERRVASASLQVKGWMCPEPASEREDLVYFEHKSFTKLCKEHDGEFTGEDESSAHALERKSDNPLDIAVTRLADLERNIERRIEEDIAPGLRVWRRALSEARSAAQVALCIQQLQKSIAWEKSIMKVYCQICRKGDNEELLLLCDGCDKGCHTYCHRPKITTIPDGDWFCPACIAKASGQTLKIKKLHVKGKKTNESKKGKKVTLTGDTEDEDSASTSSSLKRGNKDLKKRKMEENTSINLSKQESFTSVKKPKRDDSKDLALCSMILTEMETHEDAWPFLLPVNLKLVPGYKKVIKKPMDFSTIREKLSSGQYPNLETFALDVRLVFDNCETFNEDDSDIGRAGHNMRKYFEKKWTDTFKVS

The entries are a selection whose mix differs from that of the whole data set. Results filed as inconclusive are left out. Active and inactive are the calls of the source. Calls come from the whole dose curve; as a rule, active = well fitted inhibition curve with a large enough effect; inconclusive = small, poorly fitted or top-dose-only effect; inactive = no such curve, though single readings can be large or run the other way.
% is set by controls: 0 for no effect and ±100 for the full control effect; potency is the fitted concentration of half-maximal effect.

This assay deals with Bromodomain adjacent to zinc finger domain protein 2B (Homo sapiens) (UniProt Q9UIF8). In words: qHTS Assay for Inhibitors of BAZ2B. Note: nearly all actives have a fitted effect of over 60% in size. To be noted: AlphaScreen BAZ2B-H3K14Ac peptide displacement; series mostly up to 114 µM; activity change, negative = inhibition: at the top concentration.
In the case of `Nc1cccc2c([As](=O)(O)O)cccc12`, the “activity change, negative = inhibition” value is inactive: -4.81%.

With `CCOP(=O)(Nc1cccc2ccccc12)OCC`, the “activity change, negative = inhibition” value is inactive: -16.4%. On to `COc1cc(C2NCCC3(OCCO3)C2(C)C)cc(OC)c1OC` (centres undefined), for which the “activity change, negative = inhibition” value is inactive: 2.28%.

Consider `CC(C)(C)C(=O)NC(Sc1ccccc1)C(Cl)(Cl)Cl` (centres undefined), for which the “activity change, negative = inhibition” value was inactive: 54.2%. For `CC(=O)c1ccc(N2CC2c2ccncc2)cc1` (centres undefined), the “activity change, negative = inhibition” value was inactive: -2.25%.

With `C[C@@H]1C=CCP(=O)(Oc2ccccc2)O1` (some centres undefined), the “activity change, negative = inhibition” value was inactive: -11.6%. Turning to `C[C@H]1OP(=O)(Oc2ccccc2)C[C@@H]2O[C@@H]21` (some centres undefined), the “activity change, negative = inhibition” value was inactive: 3.25%. On to `Cc1ccccc1CN(C)C(=O)COC(=O)C(O)(c1ccccc1)c1ccccc1`, for which the “activity change, negative = inhibition” value was inactive: 0.417%.

For `CC(=O)Nc1ccc([As](=O)(O)O)c(O)c1`, the “activity change, negative = inhibition” value is inactive: -4.68%. Same read-out and setting: in the case of `CCNC(=S)/N=C(\N)N[N+](=O)[O-]` it was inactive: -30.2%. Take `O=C(NC1CCS(=O)(=O)C1)NP(=S)(Oc1ccccc1)Oc1ccccc1` (centres undefined): the “activity change, negative = inhibition” value is inactive: -6.26%. Take `Cc1ccc(NP(=O)(Oc2cccc(C)c2)Oc2cccc(C)c2)nc1`: the “activity change, negative = inhibition” value is inactive: 3.72%. Take `CCOC(=O)NC(Sc1ccccc1)C(Cl)(Cl)Cl` (centres undefined): the “activity change, negative = inhibition” value was inactive: 6.14% [at 57.1 µM].

Consider `c1ccc(-c2nn[nH]n2)c(-c2nn[nH]n2)c1`, for which the Potency is active: 5.01 µM. Regarding `CC(=O)NC(SC(=S)N(CC(C)C)CC(C)C)C(Cl)(Cl)Cl` (centres undefined), the “activity change, negative = inhibition” value is inactive: -35.6%.

With `Cc1ccc(OP(=O)(Nc2ccccn2)Oc2ccc(C)cc2)cc1`, the “activity change, negative = inhibition” value was inactive: -6.18%.

Consider `COC(=O)c1cc2c(s1)N=C(c1ccccc1)N(C)P2(=O)N1CCOCC1` (centres undefined), for which the “activity change, negative = inhibition” value was inactive: 11.9%. Consider `CCC(=O)N1C2C3N(C(=O)CC)C1C1N(C(=O)CC)C(C(N1C(=O)CC)N3C(=O)CC)N2C(=O)CC`, for which the “activity change, negative = inhibition” value was inactive: 3.52%. With `O=C(OC1CN2CCC1CC2)c1ccccc1` (centres undefined), the “activity change, negative = inhibition” value was inactive: 21.4%. For `CN(C)C(=O)Oc1noc2ccccc12`, the “activity change, negative = inhibition” value was inactive: 0.0091%.

`Cc1ccccc1OP(=O)(Nc1ccccn1)Oc1ccccc1C`: the “activity change, negative = inhibition” value is inactive: -5.4%.

Turning to `O=P(Nc1ccccn1)(c1ccc(Br)cc1)c1ccc(Br)cc1`, the “activity change, negative = inhibition” value is inactive: -13.6%. Turning to `CN(C)C1(CNC(=O)c2ccc(Cl)c(S(N)(=O)=O)c2)CCCCC1`, the “activity change, negative = inhibition” value is inactive: -1.97%.

In the case of `C[C@H]1OP(=O)(Oc2ccccc2)[C@H](O)[C@H](O)[C@H]1N=[N+]=[N-]` (some centres undefined), the “activity change, negative = inhibition” value was inactive: -18.4%.

Turning to `O=P(Nc1nc2ccccc2s1)(c1ccccc1)c1ccccc1`, the “activity change, negative = inhibition” value is inactive: -11.7%. For the compound `CC(=O)NC(SC(=S)N(C)C)C(Cl)(Cl)Cl` (centres undefined), the “activity change, negative = inhibition” value was inactive: -24.3%. On the same count and under the same terms, the value for `O=[N+]([O-])c1ncn(CCn2cnc([N+](=O)[O-])n2)n1` was inactive: 0.922%; that for `O=[As](O)(c1ccccc1)c1ccc(O)cc1` was inactive: -16%.

Consider `Nc1ccc([As](=O)(O)c2ccc([N+](=O)[O-])cc2)cc1`, for which the “activity change, negative = inhibition” value is inactive: -0.386%. Still for that read-out and setting: in the case of `O=C(OC1CN2CCC1CC2)c1cccc(Cl)c1` (centres undefined) it was inactive: -22.3%. With `CC(C)C(=O)NC(Sc1ccccc1)C(Cl)(Cl)Cl` (centres undefined), the “activity change, negative = inhibition” value is inactive: -0.762%. `O=P(Nc1nccs1)(c1ccccc1)c1ccccc1`: the “activity change, negative = inhibition” value was inactive: 8.65%. As to `c1nnnn1CCn1cnnn1`, the “activity change, negative = inhibition” value was inactive: -6.73%. The same measure, in the same setting: in the case of `COc1ccc(C2=NCC(CBr)S2)cc1` (centres undefined) it was inactive: -17.1%; in that of `O=[N+]([O-])c1cccc2n[nH]nc12`, inactive: 10.1%. Consider `CC(=O)N1C2C3N(C(C)=O)C1C1N(C(C)=O)C(C(N1C(C)=O)N3C(C)=O)N2C(C)=O`, for which the “activity change, negative = inhibition” value is inactive: 4.74%. As for `CCc1nc2c(n1)c1c(non1O)c1c2no[n+]1[O-]`, the “activity change, negative = inhibition” value is inactive: 3.35%.

Turning to `O=[N+]([O-])c1cc([N+](=O)[O-])c(CCNc2ccccc2)c([N+](=O)[O-])c1`, the Potency is active: 5.62 µM. As for `Cc1ccc(NP(=O)(Oc2ccccc2)Oc2ccccc2)nc1`, the “activity change, negative = inhibition” value is inactive: 0.963%. In the case of `Nc1ccc([As](=O)(O)c2ccc(N)cc2)cc1`, the “activity change, negative = inhibition” value was inactive: 3.44%. Consider `CCN(/C(=N/P(=O)(N1CCOCC1)N1CCOCC1)N1CCOCC1)c1ccc(OC)cc1`, for which the “activity change, negative = inhibition” value is inactive: -1.35%. `CN(C)C(=O)OCCc1n(C)cc[n+]1C`: the “activity change, negative = inhibition” value is inactive: -5.41%. As to `CC(C)=N/N=C(\N)N[N+](=O)[O-]`, the “activity change, negative = inhibition” value was inactive: -6.42%. As to `CC1CCN(C(=O)Oc2c(Cl)cc(Cl)c3cccnc23)CC1`, the “activity change, negative = inhibition” value is inactive: 1.2% [at 57.1 µM]. On the same count and under the same terms, in the case of `O=C(Nc1cc([As](=O)(O)O)ccc1O)c1ccccc1` it was inactive: -14%. `CC(C)(C)C(=O)NC(Sc1ccncn1)C(Cl)(Cl)Cl` (centres undefined): the Potency was active: 50.1 µM. Turning to `O=[N+]([O-])c1ncn(CCn2ncnc2[N+](=O)[O-])n1`, the “activity change, negative = inhibition” value is inactive: 0.284%. As to `O=[N+]([O-])c1cccc(NC2=NCC(CBr)S2)c1` (centres undefined), the “activity change, negative = inhibition” value was inactive: -35.1%. For `O=C(O)CNc1ccc([As](=O)(O)O)cc1`, the “activity change, negative = inhibition” value is inactive: -9.2%.

For the compound `O=C(O)c1ccccc1[As](=O)(O)O`, the “activity change, negative = inhibition” value is inactive: -17.8%. Same read-out and setting: in the case of `CC(=O)Nc1ccc([As](=O)(O)O)cc1` it was inactive: -10.4%. Regarding `O=P(Nc1nc2ccc(Cl)cc2s1)(c1ccccc1)c1ccccc1`, the “activity change, negative = inhibition” value is inactive: -23.4%.

With `Cc1ccc(NP(=O)(Oc2ccccc2F)Oc2ccccc2F)nc1`, the “activity change, negative = inhibition” value was inactive: -17.9%. `CCOP(=O)(Nc1ccccc1)OCC`: the Potency entry was “inactive”. Consider `Cc1cc(SC(NC(=O)c2ccc(F)cc2)C(Cl)(Cl)Cl)ncn1` (centres undefined), for which the Potency is active: 50.1 µM. The same measure, in the same setting: the value for `O=[N+]([O-])c1cc([N+](=O)[O-])c(CCN2CCOCC2)c([N+](=O)[O-])c1` was active: 39.8 µM. As to `CCN(N=Nc1nonc1N)c1nonc1N`, the “activity change, negative = inhibition” value was inactive: 2.31%. On the same count and under the same terms, the value for `Nc1cccc2ccc([As](=O)(O)O)cc12` was inactive: -33.5%. For `NC(=O)c1cc([N+](=O)[O-])cc([N+](=O)[O-])c1N`, the “activity change, negative = inhibition” value is inactive: -5.19%. Consider `CC1=NCCc2c1[nH]c1ccccc21`, for which the Potency was active: 35.5 µM. In the case of `CN(C(=O)Cc1ccc(Cl)c(Cl)c1)[C@H]1CCCC[C@H]1N1CCCC1`, the “activity change, negative = inhibition” value was inactive: 5.2%. For the compound `Cc1ccc(OP(=O)(Nc2nccs2)Oc2ccc(C)cc2)cc1`, the “activity change, negative = inhibition” value was inactive: -12.4%. For `COc1ccccc1OP(=O)(Nc1ccc(C)cn1)Oc1ccccc1OC`, the “activity change, negative = inhibition” value was inactive: 9.33%. Turning to `Clc1ccc(Cl)c(NC2=NCC(CBr)S2)c1` (centres undefined), the “activity change, negative = inhibition” value was inactive: 2.43%.

Regarding `CN1CCCC(OC(=O)C(c2ccccc2)c2ccccc2)C1` (centres undefined), the “activity change, negative = inhibition” value was inactive: 9.22%. Still for that read-out and setting: the value for `CC(C)CC(=O)NC(Sc1ccc(Cl)cc1)C(Cl)(Cl)Cl` (centres undefined) was inactive: 4.66%; that for `Nc1cc(N)c2nonc2c1[N+](=O)[O-]` was inactive: -18.9%. In the case of `O=C(NC(Sc1ccncn1)C(Cl)(Cl)Cl)c1ccccc1` (centres undefined), the Potency is active: 50.1 µM. As for `Oc1ccccc1CNc1ccccn1`, the “activity change, negative = inhibition” value is inactive: -9.94%.
